Common to all, as to type: functional
Assay [1] in a line: Fold resistance, ratio of EC50 for antiplasmodial activity against Plasmodium falciparum NF54 infected in human RBC to EC50 for antiplasmodial activity against asexual blood stage Plasmodium falciparum 3D7 infected in human RBC.
Assay [2] can be described thus: Fold resistance, ratio of EC50 for antiplasmodial activity against chloroquine and pyrimethamine resistant Plasmodium falciparum K1 infected in human RBC to EC50 for antiplasmodial activity against asexual blood stage Plasmodium falciparum 3D7 infected in human RBC.
Assay [3] can be described thus: Fold resistance, ratio of EC50 for antiplasmodial activity against chloroquine and pyrimethamine resistant Plasmodium falciparum 7G8 infected in human RBC to EC50 for antiplasmodial activity against asexual blood stage Plasmodium falciparum 3D7 infected in human RBC.
A short description of assay [4]: Fold resistance, ratio of EC50 for antiplasmodial activity against chloroquine, atovaquone and pyrimethamine resistant Plasmodium falciparum TM90C2B infected in human RBC to EC50 for antiplasmodial activity against asexual blood stage Plasmodium falciparum 3D7 infected in human RBC.
Assay [5] in a line: Fold resistance, ratio of EC50 for antiplasmodial activity against chloroquine and pyrimethamine resistant Plasmodium falciparum Dd2 infected in human RBC to EC50 for antiplasmodial activity against asexual blood stage Plasmodium falciparum 3D7 infected in human RBC.

`Cc1ccccc1-n1nnnc1C(c1cncnc1)N(Cc1cccc(C(F)(F)F)c1)C1CC1` (racemic): the Ratio in assay [1] was found to be 2.1; in assay [2], 1.2; in assay [3], 0.4; in assay [4], 1.7; in assay [5], 4.5.

Values taken from ChEMBL document CHEMBL5149972, “Novel Antimalarial Tetrazoles and Amides Active against the Hemoglobin Degradation Pathway in Plasmodium falciparum” (J Med Chem, 2021).
